Data: patent US20190125772A1, “IMPROVED DRUG COMBINATIONS FOR DRUG-RESISTANT AND DRUG-SENSITIVE MULTIPLE MYELOMA” (priority 2015, published 2019)

Tested on: Bortezomib-resistant RPMI 8226 multiple myeloma cells
Experiment: Inhibitory concentrations (ICx, inhibition of cell growth) of the drugs in FSC-derived optimal combinations, Bortezomib-resistant multiple myeloma
Type: cell-based
Details: concentration of the single drug as used in optimal combinations

Nc1ncn([C@H]2C[C@H](O)[C@@H](CO)O2)c(=O)n1 [Decitabine, 5-aza-2′-deoxycytidine]
IC22.5: ~1.28 µM
